## AlphaSeq binding of Ab-14 heavy chain variants to a spike HR2 peptide

Target peptide (SARS-CoV-2 spike, HR2 region): PDVDLGDISGINAS

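Phage display of a naive human antibody library on the peptide gave the parent. AAYL49 was designed without a model: most single CDR substitutions and a random sample of double and triple ones. AlphaSeq pools MATa yeast showing the antibodies with MATalpha yeast showing the peptide. After mating in shaken culture at 30 °C for 16 h, diploids were selected and their barcode pairs sequenced. Each replicate has its own calibration line, from reference interactions of the BCL2 family. There are three technical replicates.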

Ab-14 is the parent antibody, in scFv form: VH, then the linker GGGGSGGGGSGGGGS, then VL. The light chain is unchanged in all variants.
VH: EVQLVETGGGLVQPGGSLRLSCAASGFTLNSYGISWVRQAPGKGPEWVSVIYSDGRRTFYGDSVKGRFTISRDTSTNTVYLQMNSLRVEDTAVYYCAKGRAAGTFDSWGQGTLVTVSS
VL: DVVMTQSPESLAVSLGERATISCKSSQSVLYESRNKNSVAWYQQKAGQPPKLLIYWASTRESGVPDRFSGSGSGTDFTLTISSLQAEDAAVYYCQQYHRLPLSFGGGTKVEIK

Substitutions are numbered in sequence along the VH above, starting at 1 (not Kabat). Scale: log10 of Kd in nM, estimated from mating counts; low values are strong binders. Where no diploid with the target was found in that replicate, the entry reads "n.d.": below detection, most likely a poor binder, though not proof of it. Background: pairings of library AAYL49 with three empty control strains gave a value in 15% of cases (median 4.06, 5th percentile 2.83). Values in that range, when seen in few replicates, are hard to tell from nonspecific mating. Parent in this assay: reference entry 0.65, copy in this library 4.11 (one replicate of three).

changes	log10 Kd (nM) by replicate
G26H/D54I/G55C	n.d. n.d. n.d.
R56M/G61F/G99T	4.29 3.38 3.92
Y32Q/I34F/R56Y	n.d. n.d. n.d.
G55Q/S107K	n.d. n.d. n.d.
G33N/A101P/F105C	n.d. n.d. n.d.
G103R/F105S/D106T	1.08 1.27 1.29
D54G/S63I/A102I	n.d. n.d. 3.01
G55Q/G61T/S107Q	4.38 4.49 5.38
T28N/G55S/S63A	3.72 n.d. 4.10
F27Q/G33D/V50Y	5.91 n.d. n.d.
F27H/R56L/G103Y	n.d. n.d. n.d.
T58A/K65D	1.97 2.08 1.73
V64N/R100W/T104E	n.d. n.d. n.d.
S53Q/D62I/T104C	n.d. n.d. n.d.
G33N/Y60P/D106G	n.d. n.d. 3.82
G26T/N30C/F105D	n.d. n.d. n.d.

Further variants, results first:

log10 Kd (nM) by replicate	changes
n.d. n.d. n.d.	V50Q/R57W/G99N
0.59 0.77 0.70	I51L/F59A/D106V
n.d. n.d. n.d.	G26L/R56P/F59V
n.d. n.d. n.d.	T28F/Y52F/K65V
n.d. n.d. n.d.	G26N/K65D/T104D
4.22 2.70 n.d.	G26H/S53Y/R56I
4.09 3.52 5.48	F27R/S31K/S35I
n.d. n.d. n.d.	I34S/S63N
n.d. 4.13 4.11	S31I/I34Y/Y52Q
n.d. n.d. n.d.	R56C/R57C/R100M
n.d. n.d. n.d.	D54P/R57I/S107G
n.d. n.d. n.d.	D54A/A102K
n.d. n.d. n.d.	F27T/S35Y/G61M
4.04 n.d. 6.59	I34G/V50Y/S53T
n.d. n.d. n.d.	G26M/R57G/V64H
n.d. n.d. n.d.	I34G/I51G/A102F
2.37 2.37 2.92	F59T/R100H

From the AlphaSeq antibody data of Engelhart et al. 2022 (doi:10.1038/s41597-022-01779-4), copy in the FLAb collection.